# Binding of CDR-mutated scFvs to a peptide of the spike HR2 region

Reference: Engelhart et al. 2022, doi:10.1038/s41597-022-01779-4. File: FLAb, binding data.

Antigen: PDVDLGDISGINAS, a 14-residue peptide of the SARS-CoV-2 spike HR2 region.

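Phage display of a naive human antibody library on the peptide gave the parent. In library AAYL52, one, two or three CDR residues were substituted; doubles and triples were drawn at random. The scFvs were displayed on barcoded MATa yeast, the peptide on MATalpha yeast. Pairs that bind mate more often; barcode pairs of the diploids are counted by sequencing. Each replicate has its own calibration line, from reference interactions of the BCL2 family. There are three technical replicates.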

Parent: Ab-95, a human scFv built as VH, three GGGGS repeats, VL. Only the CDRs of the light chain vary.
VH: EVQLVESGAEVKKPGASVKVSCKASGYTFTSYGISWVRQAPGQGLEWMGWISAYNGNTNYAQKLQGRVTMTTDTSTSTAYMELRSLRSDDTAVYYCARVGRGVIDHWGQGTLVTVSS
VL: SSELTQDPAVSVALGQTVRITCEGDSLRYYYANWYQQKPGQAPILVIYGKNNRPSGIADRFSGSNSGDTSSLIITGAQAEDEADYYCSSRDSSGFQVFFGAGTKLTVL

Variants are written as CDR1, CDR2 and CDR3 of the light chain (limits as in the source). Parent: EGDSLRYYYAN, GKNNRPS, SSRDSSGFQVF.
This list gathers variants with a substitution at S26 (VL, numbered from residue 1).
The read-out is the apparent dissociation constant on a log10 scale (nM): the lower, the stronger.
The mean shown is taken over the replicates in which the pair was detected.
"ND" marks a missing value. The strain was present, yet no cells mated with the target were sequenced in that replicate, which points to weak or no binding.
As a blank, each scFv also met three strains without target: over library AAYL52, 28% of these pairings were detected, typically at 3.91 and seldom below 2.90.

Variant EGDPLRYYYAN | GKNNRPW | SSRDSSGGQVF gave 3.42, 4.19, 4.33 (mean 3.98). With EYDELRVYYAN | GKNNRPS | SSRDSSGFQVF the result was 2.85, 2.54, 3.16 (mean 2.85). With EGCWLRYYYAN | GWNNRPS | SSRDSSGFQVF the result was ND, 4.87, ND. Variant EGDCCVYYYAN | GKNNRPS | SSRDSSGFQVF showed ND, ND, 4.19. With EYDWLRYYYAN | GKNNRPS | SSRDSSIFQVF the result was 2.61, 3.51, 2.13 (mean 2.75). Variant EGDILRYYYAN | GKNNRPS | SSSDSSGFQIF gave ND, ND, 4.16.

With EGDKTRYYYAN | GKNNRPS | SSEDSSGFQVF the result was ND, ND, ND. Variant EGDWLRYYYAN | GKNNRPS | RWRDSSGFQVF gave 4.52, ND, ND. With EGDELRYYYKN | GTNNRPS | SSRDSSGFQVF the result was ND, ND, 2.74. Variant EGDTLRYYYAN | GKNNRPV | SSRDSSGFQVM gave 4.37, 4.75, ND (mean 4.56). Variant CPDGLRYYYAN | GKNNRPS | SSRDSSGFQVF showed ND, ND, ND. Variant EGDCLRYYYAN | GKPNRPS | SSRKSSGFQVF gave ND, 3.43, ND.

Variant EGDFLRYYYAN | GKNKRPS | SSRESSGFQVF gave ND, 4.07, 4.19 (mean 4.13). With EGDKLRYYCAN | GKCNRPS | SSRDSSGFQVF the result was ND, 4.44, ND. For EGDGLRYYYQN | GKNNRLS | SSRDSSGFQVF, the assay gave 3.84, ND, ND. Variant EGDHLRYYYAN | GKNNRPS | SWRDKSGFQVF showed ND, 2.82, ND. Variant EGDHLRYYYAN | IKNNRPS | SSRDSCGFQVF showed ND, ND, ND. With EGDALRYYYGN | GKNNRPS | SSRDSSGFAVF the result was 2.60, 3.72, 3.32 (mean 3.21).

Variant EGDLLRYYYAN | GKNNRPQ | SSRDSSGFQVF gave 5.75, 3.73, ND (mean 4.74). For EGDFLAYLYAN | GKNNRPS | SSRDSSGFQVF, the assay gave 2.50, 2.66, 2.00 (mean 2.39). For EGDGLRYYYAN | GKNNRPS | TSRDSSGFQVF, the assay gave 2.20, 2.42, 2.29 (mean 2.31). For EGDWSRYYYAN | GKNNRPS | SMRDSSGFQVF, the assay gave 3.34, 3.11, 3.04 (mean 3.16). Variant EGDMLRYYYAN | GKNNRPI | SSRDSSGFIVF gave ND, 5.72, ND. Variant EGDVLRYYQAN | GKNNRPS | SSRDSSGFQPF gave 3.13, 3.28, 4.37 (mean 3.59).

Variant EGDMLRYYIAN | GKNNRPS | SSRDSSGFQQF gave 4.69, 3.68, ND (mean 4.18). Variant EGDYLRYYYAN | GKNNRMP | SSRDSSGFQVF gave 4.72, 2.68, 3.65 (mean 3.68). Variant EGDWLRYYMAN | GKNNRPS | SSRDSSGFQRF gave 3.57, ND, ND. Variant EGDNLRWVYAN | GKNNRPS | SSRDSSGFQVF gave 2.10, 1.70, 2.02 (mean 1.94). Variant EGFRLRYIYAN | GKNNRPS | SSRDSSGFQVF showed ND, ND, ND. With EGDRLRYYYAN | GKNNRPS | SSRQSHGFQVF the result was 3.62, 4.83, ND (mean 4.23).

For EGDVLRYEYAN | PKNNRPS | SSRDSSGFQVF, the assay gave ND, ND, ND.

The opening 3 entries, copied out:

CDR-L1	CDR-L2	CDR-L3	replicates, log10 nM	log10 Kd (nM), mean
EGDPLRYYYAN	GKNNRPW	SSRDSSGGQVF	3.42, 4.19, 4.33	3.98
EYDELRVYYAN	GKNNRPS	SSRDSSGFQVF	2.85, 2.54, 3.16	2.85
EGCWLRYYYAN	GWNNRPS	SSRDSSGFQVF	ND, 4.87, ND	4.87